Tested on: naïve CD4+ T-cells
Assay: In vitro polarization of naïve CD4+ T-cells with fecal water, ILA or IFNβ, read out by targeted sc-mRNA-seq
Assay type: cell-based, human
Settings: Th0 cultures supplemented with IFNβ only
Text: To better understand the direct effects of bifidobacterial metabolites and enteric cytokines on T-cells, the inventors flow-sorted naïve CD4^+ T-cells from a healthy adult donor and polarized these cells using standard cytokine combinations (Cano-Gamez et al., 2020). The inventors also added fecal waters (1:100 dilution) collected from either B. infantis EVC001 supplemented or control children lacking B. infantis (FIG. 5A). To evaluate the cellular states of polarized T-cells, the inventors applied a targeted multiomics approach quantifying 259 mRNA molecules with known functions in T-cells and 10 surface proteins detected by oligo-coupled antibodies (Abseq™, Rhapsody™, BD Biosciences) (Mair et al., 2020). The UMAP embeddings of cells were largely similar across Th0, Th1 and Th2 conditions but slightly different for Th17 and iTreg states (FIG. 5B). […]
Targeted transcriptome and protein by BD Rhapsody single cell RNA Sequencing. […] Each sample was then washed twice, counted and resuspended in cold BD SampleBuffer, then calculated the cell number in each sample, then pooled the required number of cells from each sample to get approximately 20,000 cells in 620 μl for each cartridge (around 9 samples for each cartridge). […] Quality and quantity of PCR products were determined by using an Agilent 2100 Bioanalyzer and Qubit Fluorometer using the Qubit dsDNA HS Kit (ThermoFisher). […]

B1: IFNβ: interferon beta added to Th0 cultures (10 ng/ml) (protein, UniProt P01574 22-187, looked up)
Interferon beta: MSYNLLGFLQRSSNFQCQKLLWQLNGRLEYCLKDRMNFDIPEEIKQLQQFQKEDAALTIYEMLQNIFAIFRQDSSSTGWNETIVENLLANVYHQINHLKTVLEEKLEKEDFTRGKLMSSLHLKRYYGRILHYLKAKEYSHCAWTIVRVEILRNFYFINRLTGYLRN
effect on Th1/Th2 skewing of Th0 cultures: did not replicate the effect

Reference: patent publication US20240207403A1, “PERSONALIZED IMMUNOTHERAPY USING INTESTINAL METABOLITES” (Evolve Biosystems, Inc., priority 2021, published 2024)
